Results taken from patent US11667628B2, “Compounds for imaging tau proteins that accumulate in brain” (National Institutes for Quantum and Radiological Science …, priority 2012, dated 2023).

Chains of the proteins cited; added tags and fusions are not shown. Residues count along the entry.
UniProt P05067, 672-711 limits assumed: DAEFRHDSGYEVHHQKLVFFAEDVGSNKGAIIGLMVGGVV

Key:
Aβ40 fibrils = Aβ40 fibrils (Homo sapiens, UniProt P05067); test: In vitro fluorometric binding assay, Aβ40 fibrils; details: average±SE; concentration giving half of maximum fluorescence intensity
[1] = target: Human T40 (the longest tau isoform formed with 441 amino acid residues) fibrils (Homo sapiens, UniProt P10636); test: In vitro fluorometric binding assay, recombinant T40 tau fibrils; details: average±SE; concentration giving half of maximum fluorescence intensity

Compound: Cc1ccc2c(c1)sc(-c1ccc(N(C)C)cc1)[n+]2C.[Cl-] [Thioflavin-T, reference compound]
- EC50 (Aβ40 fibrils): 1460 nM
- EC50 [1]: 818 ± 231 nM
